Results from ChEMBL document CHEMBL4627400, “Discovery of Dihydropyrrolo[1,2-a]pyrazin-3(4H)-one-Based Second-Generation GluN2C- and GluN2D-Selective Positive Allosteric Modulators (PAMs) of the N-Methyl-d-Aspartate (NMDA) Receptor” (J Med Chem, 2020).

Protein sequences, listed by entry. Tags and fused reporters are not part of them. Lines headed by an entry give the natural chain unless they say otherwise; changes in a name come on top.
UniProt Q00961: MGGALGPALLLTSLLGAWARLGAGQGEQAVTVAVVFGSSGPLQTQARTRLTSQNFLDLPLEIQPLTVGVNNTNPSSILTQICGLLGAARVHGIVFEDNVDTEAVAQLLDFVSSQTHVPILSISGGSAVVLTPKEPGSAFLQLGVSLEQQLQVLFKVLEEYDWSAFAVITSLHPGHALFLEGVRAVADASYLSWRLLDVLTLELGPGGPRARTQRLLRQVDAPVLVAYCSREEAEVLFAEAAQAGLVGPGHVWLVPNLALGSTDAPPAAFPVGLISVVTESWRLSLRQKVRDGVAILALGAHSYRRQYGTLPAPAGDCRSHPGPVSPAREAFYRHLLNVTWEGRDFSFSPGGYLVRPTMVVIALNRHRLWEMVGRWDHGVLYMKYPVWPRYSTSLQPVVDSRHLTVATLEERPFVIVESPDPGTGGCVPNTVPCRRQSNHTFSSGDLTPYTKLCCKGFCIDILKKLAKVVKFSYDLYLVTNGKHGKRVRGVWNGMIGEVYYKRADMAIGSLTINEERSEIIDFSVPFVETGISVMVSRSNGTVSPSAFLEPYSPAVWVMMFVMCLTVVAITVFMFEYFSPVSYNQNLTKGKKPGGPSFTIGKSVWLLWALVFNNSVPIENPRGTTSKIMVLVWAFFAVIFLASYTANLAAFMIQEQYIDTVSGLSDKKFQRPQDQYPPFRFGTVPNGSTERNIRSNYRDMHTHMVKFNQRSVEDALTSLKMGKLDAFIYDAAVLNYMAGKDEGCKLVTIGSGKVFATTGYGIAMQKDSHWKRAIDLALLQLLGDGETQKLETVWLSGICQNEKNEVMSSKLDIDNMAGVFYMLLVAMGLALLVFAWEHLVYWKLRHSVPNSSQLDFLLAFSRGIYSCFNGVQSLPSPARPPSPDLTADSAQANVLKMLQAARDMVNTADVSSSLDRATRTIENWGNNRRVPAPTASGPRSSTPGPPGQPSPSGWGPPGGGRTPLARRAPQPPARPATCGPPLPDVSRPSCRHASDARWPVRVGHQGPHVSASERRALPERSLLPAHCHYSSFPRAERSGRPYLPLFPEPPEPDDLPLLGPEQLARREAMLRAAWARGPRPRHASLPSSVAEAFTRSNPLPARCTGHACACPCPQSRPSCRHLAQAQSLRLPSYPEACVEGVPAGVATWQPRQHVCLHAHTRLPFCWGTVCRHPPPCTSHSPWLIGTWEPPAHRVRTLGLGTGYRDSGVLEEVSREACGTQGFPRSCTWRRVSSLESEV
UniProt Q62645, whole entry, looked up: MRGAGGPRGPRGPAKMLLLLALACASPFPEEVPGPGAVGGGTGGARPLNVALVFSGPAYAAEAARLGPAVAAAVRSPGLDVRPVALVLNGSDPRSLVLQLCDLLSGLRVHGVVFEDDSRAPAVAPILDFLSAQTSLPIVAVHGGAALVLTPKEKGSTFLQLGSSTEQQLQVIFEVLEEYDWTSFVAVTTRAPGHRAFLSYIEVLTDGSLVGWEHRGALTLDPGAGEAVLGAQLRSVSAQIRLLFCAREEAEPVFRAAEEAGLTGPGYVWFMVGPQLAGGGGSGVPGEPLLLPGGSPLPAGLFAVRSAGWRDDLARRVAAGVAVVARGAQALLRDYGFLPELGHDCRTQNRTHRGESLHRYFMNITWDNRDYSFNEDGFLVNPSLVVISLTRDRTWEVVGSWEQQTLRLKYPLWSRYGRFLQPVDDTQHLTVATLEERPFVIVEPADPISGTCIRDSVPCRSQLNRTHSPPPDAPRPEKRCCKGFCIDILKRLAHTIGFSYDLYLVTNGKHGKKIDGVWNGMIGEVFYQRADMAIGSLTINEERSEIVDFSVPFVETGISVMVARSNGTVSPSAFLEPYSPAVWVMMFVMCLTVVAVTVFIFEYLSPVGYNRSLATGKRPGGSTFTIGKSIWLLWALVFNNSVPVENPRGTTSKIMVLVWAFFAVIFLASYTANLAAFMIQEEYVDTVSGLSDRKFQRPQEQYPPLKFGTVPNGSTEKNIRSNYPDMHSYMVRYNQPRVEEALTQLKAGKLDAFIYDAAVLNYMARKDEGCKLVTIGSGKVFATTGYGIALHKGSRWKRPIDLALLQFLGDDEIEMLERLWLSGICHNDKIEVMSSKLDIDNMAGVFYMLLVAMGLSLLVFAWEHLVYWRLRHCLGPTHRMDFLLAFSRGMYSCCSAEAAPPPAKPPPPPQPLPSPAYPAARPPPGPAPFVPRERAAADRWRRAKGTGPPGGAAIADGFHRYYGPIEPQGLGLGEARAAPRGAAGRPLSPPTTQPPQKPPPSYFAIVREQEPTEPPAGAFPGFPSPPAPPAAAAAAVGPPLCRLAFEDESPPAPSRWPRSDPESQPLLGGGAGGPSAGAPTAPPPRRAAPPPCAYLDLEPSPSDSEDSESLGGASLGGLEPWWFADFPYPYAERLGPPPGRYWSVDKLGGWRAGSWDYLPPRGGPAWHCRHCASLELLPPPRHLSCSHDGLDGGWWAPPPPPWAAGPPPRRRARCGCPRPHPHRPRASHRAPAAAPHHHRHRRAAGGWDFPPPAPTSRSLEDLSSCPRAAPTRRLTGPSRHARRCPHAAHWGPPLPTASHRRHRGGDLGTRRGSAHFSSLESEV

Assays:
Format in all cases: cell-based
[1] = molecular target: T1, Glutamate NMDA receptor; Grin1/Grin2c (Rattus norvegicus) (UniProt P35439+Q00961); assay: Positive allosteric modulation of recombinant rat GluN1a/GluN2C receptor expressed in Xenopus laevis oocytes assessed as increase in glycine/L-glutamate-induced channel current by measuring log of doubling concentration by two-electrode voltage clamp method
[2] = molecular target: Ionotropic glutamate receptor NMDA 1/2D (Rattus norvegicus) (UniProt P35439+Q62645); assay: Positive allosteric modulation of recombinant rat GluN1a/GluN2D receptor expressed in Xenopus laevis oocytes assessed as increase in glycine/L-glutamate-induced channel current by measuring log of doubling concentration by two-electrode voltage clamp method
Method in brief: (§1)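 Oocytes expressing rat GluN1/GluN2C or GluN2D, held at −40 mV in HEPES-buffered Ba2+ solution, pH 7.4, 23 °C. Compound (DMSO stock 20 mM) co-applied with 100 μM glutamate and 30 μM glycine. Current given as percent of agonist-alone response. […] Doubling concentration is the concentration giving 2-fold response; reported as […] log. 6–19 oocytes from 2–3 frogs.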

[3] = molecular target: T1, Glutamate NMDA receptor; Grin1/Grin2c (Rattus norvegicus); assay: Positive allosteric modulation of recombinant rat GluN1a/GluN2C receptor expressed in Xenopus laevis oocytes assessed as increase in glycine/L-glutamate-induced channel current at 30 uM by two-electrode voltage clamp method relative to control; method in brief: as §1

Compound | log(activity) [1] | log(activity) [2] | %max [3] [%]
COc1ccc(OCC2c3ccc(OC)cc3CC(=O)N2CCCC(F)(F)F)cc1 (configuration not stated) | -5 | -5.1 | 
COc1ccc(OCC2c3ccc(OCC(C)C)cc3CC(=O)N2Cc2cccc(Cl)c2)cc1 (configuration not stated) | -6.2 | -6.4 | 
COc1ccc(OCC2c3ccc(OC(C)C)cc3CCN2C(=O)c2cccc(F)c2)cc1 (configuration not stated) |  | -5.5 | 
COc1ccc(OCC2c3cc(OC)c(OC)cc3CC(=O)N2Cc2cccc(Cl)c2)cc1 (configuration not stated) | -5.1 | -5.1 | 
COc1ccc(OCC2c3ccc(OC)cc3CCN2C(=O)c2cccc(Cl)c2)cc1 (configuration not stated) | -5.5 | -5.3 | 240
COc1ccc(OCC2c3cc(OC)c(OC)cc3CCN2C(=O)c2cccc(Cl)c2)cc1 (configuration not stated) | -4.9 | -4.5 | 
COc1ccc(OCC2c3ccc(OCC(C)C)cc3CCN2C(=O)c2cccc(Cl)c2)cc1 (configuration not stated) | -6.4 | -6.3 | 
COc1ccc(OCC2c3ccccc3CCN2C(=O)c2cccc(Cl)c2)cc1 (configuration not stated) | -5 | -5 | 
COc1ccc(OCC2c3ccsc3CCN2C(=O)c2cccc(Cl)c2)cc1 (configuration not stated) | -5.5 | -5.4 | 
COc1ccc(OCC2c3occc3CCN2C(=O)c2cccc(Cl)c2)cc1 (configuration not stated) | -5.4 | -5.5 | 
COc1ccc(OCC2c3ccc(OC(C)C)cc3CC(=O)N2Cc2cccc(Cl)c2)cc1 (configuration not stated) | -6.6 | -6.6 | 
COc1ccc(OCC2c3ccc(OC(C)C)cc3CCN2C(=O)c2cccc(Cl)c2)cc1 (configuration not stated) | -5.3 | -5.2 | 
COc1ccc(OC[C@H]2c3cccn3CCN2C(=O)c2cccc(Cl)c2)cc1 | -6.1 | -6.2 | 
COc1ccc(OCC2c3ccc(OC(C)C)cc3CC(=O)N2Cc2cccc(F)c2)cc1 (configuration not stated) | -6 | -5.8 | 
COc1ccc(OCC2c3cccn3CC(=O)N2Cc2cccc(F)c2)cc1 (configuration not stated) |  | -5.7 | 
COc1ccc(OCC2c3ccc(OC(C)C)cc3CC(=O)N2Cc2cccc(C(F)(F)F)c2)cc1 (configuration not stated) | -6.3 | -6.3 | 
COc1ccc(OCC2c3cccn3CC(=O)N2Cc2cccc(C(F)(F)F)c2)cc1 (configuration not stated) | -5.9 | -6.1 | 
COc1ccc(OCC2c3sccc3CCN2C(=O)c2cccc(Cl)c2)cc1 (configuration not stated) | -5.3 | -5.6 | 
COc1ccc(OCC2c3sccc3CCN2C(=O)c2ccc(Cl)s2)cc1 (configuration not stated) | -5.3 | -5.6 | 
COc1ccc(OCC2c3cccn3CCN2C(=O)c2cccc(C(F)(F)F)c2)cc1 (configuration not stated) | -6.1 | -5.6 | 
COc1ccc(OC[C@H]2c3cccn3CCN2C(=O)c2cccc(C(F)(F)F)c2)cc1 | -6.3 | -6.4 | 
COc1ccc(OCC2c3sccc3CCN2C(=O)/C=C/C(F)(F)F)cc1 (configuration not stated) | -4.8 | -4.9 | 
COc1ccc(OCC2c3ccc(OC(C)C)cc3CCN2C(=O)c2cccc(C(F)(F)F)c2)cc1 (configuration not stated) | -6 | -5.8 | 
COc1ccc(OC[C@H]2c3cccn3CC(=O)N2Cc2cccc(F)c2)cc1 |  | -5.8 | 
COc1ccc(OC[C@H]2c3cccn3CC(=O)N2Cc2cccc(C(F)(F)F)c2)cc1 | -6 | -6.2 | 
COc1ccc(OCC2c3cccn3CCN2C(=O)c2cccc(Cl)c2)cc1 (configuration not stated) | -5.9 | -5.8 | 
COc1ccc(OCC2c3ccc(OC)cc3CC(=O)N2Cc2cccc(Cl)c2)cc1 (configuration not stated) | -5.6 | -5.7 | 
